In general, Ki refers to the dissociation constant of the complex between target and ligand, obtained from inhibition or displacement. A low value points to a stronger hold on the target. As usually defined, the IC50 is the concentration needed to halve the response being measured.

Chains of the proteins cited; added tags and fusions are not shown.
UniProt P08908, whole entry: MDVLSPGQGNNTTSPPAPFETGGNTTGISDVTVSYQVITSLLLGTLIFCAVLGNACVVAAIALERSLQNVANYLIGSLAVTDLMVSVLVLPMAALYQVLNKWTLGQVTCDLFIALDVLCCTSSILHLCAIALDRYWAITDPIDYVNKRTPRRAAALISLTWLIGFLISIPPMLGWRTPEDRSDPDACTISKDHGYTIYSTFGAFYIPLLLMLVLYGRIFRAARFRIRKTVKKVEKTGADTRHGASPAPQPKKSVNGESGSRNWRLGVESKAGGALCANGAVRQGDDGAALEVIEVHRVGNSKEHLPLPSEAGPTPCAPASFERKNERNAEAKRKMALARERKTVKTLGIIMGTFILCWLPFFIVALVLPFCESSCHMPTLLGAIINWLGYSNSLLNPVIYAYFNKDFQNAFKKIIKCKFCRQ

Assay [1] concerns the target T1, 5-hydroxytryptamine receptor 1A (Homo sapiens, UniProt P08908). In words: biochemical.
Assay [2] deals with T1, 5-hydroxytryptamine receptor 1A.

`NC(=O)c1ccc(F)c2c1C[C@H](N(CCCc1c[nH]c3ccc(F)cc13)CC1CC1)CO2` yielded a Ki in assay [1] of 0.1 nM.

With `NC(=O)c1ccc(F)c2c1CC(N(CCCc1c[nH]c3ccc(F)cc13)CC1CC1)CO2` (racemic), the inhibition constant (Ki) in assay [1] came out at 2.3 nM. In assay [2], `NC(=O)c1ccc(F)c2c1C[C@@H](N(CCCc1c[nH]c3ccc(F)cc13)CC1CC1)CO2` came in with an IC50 of 70 nM. The molecule further returned a Ki in assay [1] of 2.1 nM.

Values taken from ChEMBL document CHEMBL1138933 (J Med Chem, 2006).
